Where two headings read alike, the source gives them in different places.
Assays:
TbDHFR-TS = TbDHFR-TS (Trypanosoma brucei brucei, UniProt Q27783); design: His tag; made in house; host or cells: E. coli; details: cited from earlier work
TbPTR1 = molecular target: T1, TbPTR1 (Trypanosoma brucei brucei, UniProt O76290); details: read-out: IC50 TbPTR1; recombinant enzyme
T1 sequence (O76290 1-268): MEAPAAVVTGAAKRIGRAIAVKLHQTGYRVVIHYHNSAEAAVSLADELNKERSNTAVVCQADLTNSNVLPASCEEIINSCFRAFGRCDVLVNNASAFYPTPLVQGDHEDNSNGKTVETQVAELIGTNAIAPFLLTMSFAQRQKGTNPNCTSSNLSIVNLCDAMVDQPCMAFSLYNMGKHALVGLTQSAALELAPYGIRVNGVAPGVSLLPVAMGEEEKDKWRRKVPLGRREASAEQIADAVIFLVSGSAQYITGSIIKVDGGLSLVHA

Chains of the proteins cited; added tags and fusions are not shown. Lines headed by an entry give the natural chain unless they say otherwise; changes in a name come on top.
UniProt Q27783: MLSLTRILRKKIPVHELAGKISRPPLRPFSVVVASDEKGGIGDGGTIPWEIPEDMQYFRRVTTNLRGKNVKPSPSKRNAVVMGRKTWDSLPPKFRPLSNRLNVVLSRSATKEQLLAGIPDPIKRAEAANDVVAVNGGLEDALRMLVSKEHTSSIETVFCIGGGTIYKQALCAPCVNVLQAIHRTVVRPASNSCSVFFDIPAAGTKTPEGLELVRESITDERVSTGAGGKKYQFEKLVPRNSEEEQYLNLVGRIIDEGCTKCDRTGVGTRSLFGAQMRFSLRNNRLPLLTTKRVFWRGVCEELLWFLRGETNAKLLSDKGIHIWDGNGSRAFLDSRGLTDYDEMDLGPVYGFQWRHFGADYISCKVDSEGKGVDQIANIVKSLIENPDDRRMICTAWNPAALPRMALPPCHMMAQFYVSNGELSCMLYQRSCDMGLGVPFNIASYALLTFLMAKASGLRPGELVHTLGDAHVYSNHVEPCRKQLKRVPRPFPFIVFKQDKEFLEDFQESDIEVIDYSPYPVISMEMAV

[1] = Ki printed in the IC50 column, read-out: TbDHFR-TS Ki

IC50 (TbPTR1) [nM]	Structure (SMILES)	Ki (TbDHFR-TS; [1]) [nM]	Ki (TbDHFR-TS; read-out: TbDHFR inhibition constant (Ki)) [nM]
	CC1(C)N=C(N)N=C(N)N1c1ccc(Cl)cc1 [CYC, cycloguanil, reference compound]	256	
90	CCc1nc(N)nc(N)c1-c1ccc(Cl)cc1 [PYR, pyrimethamine]	24	24.2
